# Data: US7317014B2, “Bio-active pyrimidine molecules” (Orchid Research Laboratories, Ltd., priority 2002, dated 2008)
# Columns and labels:
# [1] = tested on: Male Wistar rats; experiment: Rat carrageenan paw edema test; type: in vivo; settings: oral
# [2] = tested on: TNF-α; experiment: TNF-α production from LPS-stimulated human monocytes (ELISA); type: cell-based
Compound,Rat Paw Edema model % Inhibition (10 mg/kg body weight) [1] [%],TNF-α Inhibition (%) ([2]; Conc. 1 μM),TNF-α Inhibition (%) ([2]; Conc. 10 μM)
[N-]=[N+]=Nc1nc(N=[N+]=[N-])c(-c2ccc(Cl)cc2)c(-c2ccccc2)n1,39.4,26.34,–
[N-]=[N+]=Nc1nc(N=[N+]=[N-])c(-c2ccccc2)c(-c2ccccc2)n1,–,–,69.43
